Target: Prothrombin (Homo sapiens, UniProt P00734)

Question: How did the Ki turn out when `CC1CCCCN1C(=O)N(Cc1cccc(C(=N)NO)c1)NS(=O)(=O)c1ccc2ccccc2c1` (stereo unspecified) was run?
Answer: The Ki was 12 µM.

Source: ChEMBL document CHEMBL1137966, “Thrombin inhibitors built on an azaphenylalanine scaffold” (Bioorg Med Chem Lett, 2004)
